Read-outs that look alike come from different tables or passages of the source.

This data set concerns protease from Conidiobolus brefeldianus MTCC 5185. On the procedure:
This example illustrates the stability of the protease in presence of salts. […] Aliquots were removed at regular intervals of 30 min and residual activity was estimated at 50° C., pH 9.

As for Ammonium sulphate [(NH4)2SO4], the “Residual Activity (%) of protease at 50° C.” value amounted to 100.00% (10 mM CaCl2, 0.5M NaCl, 0.5M glycine or 15% (NH4)2SO4, 0 min); 82.27% (salt concentration as in column head, 30 min); 71.87% (salt concentration as in column head, 60 min); 64.72% (salt concentration as in column head, 90 min); 60.25% (salt concentration as in column head, 120 min); 55.19% (salt concentration as in column head, 180 min). For the setting “salt concentration as in column head, 180 min, listed as ammonium sulphate”, the “Residual Activity (%) of protease at 50° C.” value is given as “around 55%”.

Values taken from patent US20130115671A1, “ENZYMES FROM CONIDIOBOLUS BREFELDIANUS AND PROCESS FOR PREPARATION THEREOF” (Council of Scientific and Industrial Research, priority 2010, published 2013).
